{"source": "patent US12098352B2", "about": "“Stem cell-based lung-on-chip models” (EMULATE, INC., priority 2018, dated 2024)", "origin": "cited, not measured here", "tested_on": "pulmonary vascular leakage", "settings": "static conditions; cited from earlier work", "data": [{"substance": "IL-2: cytokine inducing lung toxicity / pulmonary edema on-chip", "values": [{"measurement": "pulmonary vascular leakage into the air channel", "value": "induce limited pulmonary vascular leakage"}]}]}
